## Ab-14 light chain CDR variants: yeast mating affinities

From the AlphaSeq antibody data of Engelhart et al. 2022 (doi:10.1038/s41597-022-01779-4), copy in the FLAb collection.

Target: peptide PDVDLGDISGINAS, taken from heptad repeat 2 (HR2) of SARS-CoV-2 spike.

Parent scFv Ab-14: VH joined to VL by a (GGGGS)3 linker. Changes lie in the light chain CDRs alone.
VH: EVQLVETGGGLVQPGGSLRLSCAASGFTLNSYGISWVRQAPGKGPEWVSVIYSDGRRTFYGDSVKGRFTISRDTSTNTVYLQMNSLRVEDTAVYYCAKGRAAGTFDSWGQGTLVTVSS
VL: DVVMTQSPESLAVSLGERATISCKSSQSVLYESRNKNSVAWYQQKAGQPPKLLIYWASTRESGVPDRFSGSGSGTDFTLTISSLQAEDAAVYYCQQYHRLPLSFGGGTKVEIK

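The parent was found by panning a naive human phage display library on the peptide. AAYL50 was designed without a model: most single CDR substitutions and a random sample of double and triple ones. In AlphaSeq, yeast of one mating type display the scFv and yeast of the other type display the target. Mating (16 h, 30 °C) was followed by selection of diploids and sequencing of their barcodes. Scores were corrected for input abundance and mapped to Kd with protein pairs of known affinity run in the same pool. Mating was done three times.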

Substitutions are numbered in sequence along the VL above, starting at 1 (not Kabat). Scale: log10 of Kd in nM, estimated from mating counts; low values are strong binders. Where no diploid with the target was found in that replicate, the entry reads "nd": below detection, most likely a poor binder, though not proof of it. As a blank, each scFv also met three strains without target: over library AAYL50, 18% of these pairings were detected, typically at 4.19 and seldom below 2.99. The control count says in how many pairings with the empty strains this scFv gave a signal, with their mean in brackets.

{"changes": "L30C+S33K+T59F", "log10 Kd (nM) by replicate": "2.64 2.51 3.15", "signal with controls": "5 of 9 (4.52)"}
{"changes": "S26L+Y31I+Q96I", "log10 Kd (nM) by replicate": "2.95 nd nd", "signal with controls": "0 of 9"}
{"changes": "Q27R+W56R+P101A", "log10 Kd (nM) by replicate": "nd nd nd", "signal with controls": "2 of 9 (3.62)"}
{"changes": "S26T+Q27K", "log10 Kd (nM) by replicate": "1.28 1.30 1.30", "signal with controls": "0 of 9"}
{"changes": "E32D+S58A+L102Y", "log10 Kd (nM) by replicate": "nd nd nd", "signal with controls": "0 of 9"}
{"changes": "K36M+A40F+S62L", "log10 Kd (nM) by replicate": "nd nd nd", "signal with controls": "4 of 9 (4.34)"}
{"changes": "R60I+L102D", "log10 Kd (nM) by replicate": "4.06 nd nd", "signal with controls": "3 of 9 (4.89)"}
{"changes": "K24V+V29Q+Y97R", "log10 Kd (nM) by replicate": "nd 3.53 4.87", "signal with controls": "0 of 9"}
{"changes": "S38C+W56R", "log10 Kd (nM) by replicate": "0.75 0.78 0.79", "signal with controls": "1 of 9 (3.38)"}
{"changes": "S58K+Q95M+H98G", "log10 Kd (nM) by replicate": "nd 4.58 nd", "signal with controls": "7 of 9 (4.64)"}
{"changes": "K24H+N37R+S38R", "log10 Kd (nM) by replicate": "nd 3.67 nd", "signal with controls": "4 of 9 (3.93)"}
{"changes": "S33K+N35E+N37R", "log10 Kd (nM) by replicate": "nd nd 4.26", "signal with controls": "3 of 9 (3.95)"}
{"changes": "E32S+K36S+L100H", "log10 Kd (nM) by replicate": "nd nd nd", "signal with controls": "0 of 9"}
{"changes": "K36H+S103C", "log10 Kd (nM) by replicate": "2.69 2.06 2.14", "signal with controls": "0 of 9"}
{"changes": "V29A+R60P+P101R", "log10 Kd (nM) by replicate": "nd 3.13 3.58", "signal with controls": "1 of 9 (2.81)"}
{"changes": "K24E+L30T+S62W", "log10 Kd (nM) by replicate": "1.61 1.89 2.19", "signal with controls": "0 of 9"}
{"changes": "T59Y+Y97M+S103V", "log10 Kd (nM) by replicate": "1.60 1.44 1.43", "signal with controls": "0 of 9"}
{"changes": "S33H+L100Q", "log10 Kd (nM) by replicate": "nd nd nd", "signal with controls": "0 of 9"}
{"changes": "E32K+R34I", "log10 Kd (nM) by replicate": "1.22 1.58 1.25", "signal with controls": "4 of 9 (3.54)"}
{"changes": "S25P+S26V+R34P", "log10 Kd (nM) by replicate": "1.91 1.85 2.00", "signal with controls": "4 of 9 (5.14)"}
{"changes": "R60C+Y97Q+L102G", "log10 Kd (nM) by replicate": "4.50 nd nd", "signal with controls": "2 of 9 (3.67)"}
{"changes": "S26I+R60N+Y97M", "log10 Kd (nM) by replicate": "nd nd nd", "signal with controls": "1 of 9 (4.29)"}
{"changes": "E32G+R34P+Y97I", "log10 Kd (nM) by replicate": "4.75 4.61 5.85", "signal with controls": "5 of 9 (4.16)"}
{"changes": "V39A+A57V", "log10 Kd (nM) by replicate": "nd nd nd", "signal with controls": "0 of 9"}
{"changes": "S25N+S62P+H98C", "log10 Kd (nM) by replicate": "nd 2.75 nd", "signal with controls": "1 of 9 (3.13)"}
{"changes": "L30G+N35D+K36C", "log10 Kd (nM) by replicate": "3.02 nd nd", "signal with controls": "2 of 9 (3.48)"}
{"changes": "L30P+T59F+E61L", "log10 Kd (nM) by replicate": "3.43 2.41 3.24", "signal with controls": "0 of 9"}
{"changes": "V29C+A40R+Y97T", "log10 Kd (nM) by replicate": "nd nd nd", "signal with controls": "2 of 9 (4.12)"}

Excerpt, the first 5 entries:

{"changes": "L30C+S33K+T59F", "log10 Kd (nM) by replicate": "2.64 2.51 3.15", "signal with controls": "5 of 9 (4.52)"}
{"changes": "S26L+Y31I+Q96I", "log10 Kd (nM) by replicate": "2.95 nd nd", "signal with controls": "0 of 9"}
{"changes": "Q27R+W56R+P101A", "log10 Kd (nM) by replicate": "nd nd nd", "signal with controls": "2 of 9 (3.62)"}
{"changes": "S26T+Q27K", "log10 Kd (nM) by replicate": "1.28 1.30 1.30", "signal with controls": "0 of 9"}
{"changes": "E32D+S58A+L102Y", "log10 Kd (nM) by replicate": "nd nd nd", "signal with controls": "0 of 9"}

In this assay the parent's reference entry averaged 0.65; its copy inside this library read 1.68.